# Assay results from ChEMBL document CHEMBL1124221, “Highly selective kappa opioid analgesics. Synthesis and structure-activity relationships of novel N-[(2-aminocyclohexyl)aryl]acetamide and N-[(2-aminocyclohexyl)aryloxy]acetamide derivatives” (1988).
# Target: Opioid receptors; mu & kappa (Homo sapiens) (UniProt P41145+P35372)
# Assay: Ratio of Ki at mu-opioid receptor to Ki at kappa opioid receptor
# Settings: Cavia porcellus
smiles,measurement,value
CN(C(=O)Cc1cccc2sccc12)[C@@H]1CCCC[C@H]1N1CCCC1,Ratio,0.59
